One molecule from patent publication EP1070068B2, “GRANULATIMIDE DERIVATIVES FOR USE IN CANCER TREATMENT” (THE UNIVERSITY OF BRITISH COLUMBIA, priority 1998, dated 1999) can be followed below.

By UniProt entry, the sequences of proteins in these tests, tags left out.
UniProt P06493, whole entry, species assumed: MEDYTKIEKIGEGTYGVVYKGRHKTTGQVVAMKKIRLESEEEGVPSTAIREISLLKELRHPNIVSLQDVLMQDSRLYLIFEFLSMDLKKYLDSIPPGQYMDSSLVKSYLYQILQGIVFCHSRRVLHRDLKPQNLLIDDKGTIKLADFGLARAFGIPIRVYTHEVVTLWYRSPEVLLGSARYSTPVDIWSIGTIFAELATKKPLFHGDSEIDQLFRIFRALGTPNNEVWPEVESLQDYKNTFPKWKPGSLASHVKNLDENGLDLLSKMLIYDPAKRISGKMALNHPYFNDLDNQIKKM

The assay concerns the target CDK1 (Homo sapiens, UniProt P06493). The experiment in a line: Protein kinase inhibition assay (γ-32P ATP). Format: biochemical. The settings on record: room temperature, 15 minutes. Here is the method: 100% DMSO was used as a negative control.
Kinase reactions are performed at room temperature. The reaction mixture contains diluted test compound, the protein kinase, substrate and γ-^32P ATP. The mixture is incubated for 15 minutes, and the reaction mix spotted, and counted.

The term IC50 denotes the midpoint of a concentration-inhibition curve. Higher therefore signals weaker potency.

Turning to `O=C1NC(=O)c2c1c1c3ccccc3[nH]c1n1cncc21` [Isogranulatimide], the IC50 amounted to 10 µM.
